Assay results: US8033977B2, “Methods of enhancing radiation effects with metal nanoparticles” (NanoProbes, Inc., priority 1998, dated 2011)

Legend:
[1] = system: Her2+ (BT-474) and Her2− (MCF-7) tumors; assay: Gold biodistribution in mice bearing Her2+ and Her2− tumors (atomic absorption); type: in vivo; conditions: 20 hours after i.v. injection, 1.1 g Au/kg, nude mice
Her2+ tumor = assay: MicroCT of gold at the tumor periphery in mice bearing Her2+ and Her2− tumors; type: in vivo
MCF7 = assay: Uptake of gold-antibody conjugate into control cell line MCF7; type: cell-based; conditions: control cell line with low expression of EGFr
Description: (§1) An anti-Epidermal Growth Factor receptor (EGFr) antibody, MAb225, was expressed in cell culture, then purified by protein A column chromatography. […] The antibody was checked for purity by gel electrophoresis and its activity was verified by targeting to A431 cells using 15 nm colloidal gold antibody conjugates and silver enhancement. A431 cells, which highly express EGFr, and a control cell line with low expression of EGFr, MCF7, were cultured. Gold-antibody conjugates were added to the growth medium and 2 days later, the medium was changed and more gold-antibody was added. […] On the fifth day, A431 cells were highly loaded with gold.

A431 cells [2] = assay: Uptake of gold-antibody conjugate into A431 cells (atomic absorption); type: cell-based
Description: as §1
The amount of gold uptake into the cells was quantified by atomic absorption spectroscopy. A431 cells after the above regimen contained 0.55% gold by weight. Such a level would be enough to have a major effect on the absorbed x-ray dose.

A431 cells [3] = assay: X-ray dose enhancement in gold-loaded A431 cells, metabolic cell viability test; type: cell-based; conditions: 250 kVp x-rays, 0-16 Gray
Description: A431 cells were targeted with the gold nanoparticle-anti-EGFr antibody conjugate as described in Example 1. The cells were then washed several times and resuspended in fresh medium, then aliquots of cell suspension were exposed to 250 kVp x-rays with doses between 0 and 16 Gray. A431 cells not exposed to gold nanoparticles were similarly irradiated and used as controls. After irradiation, cells were plated and grown for one week. A metabolic cell viability test was then done to determine the surviving fraction. […] The dose enhancement factor was therefore 4.5.

Row | Substance | Au % id/g, Muscle [1] | average amount of gold in periphery region (Her2+ tumor; Her2+ tumor, microCT) | projected x-ray dose enhancement factor (Her2+ tumor; at 140 kVp, from 0.45% gold by weight) | delivery to tumor periphery region (Her2+ tumor; regions with greater than 0.18% gold by weight, Her2+ tumor, microCT) | visible uptake of colloidal gold (MCF7) | gold uptake into the cells (A431 cells [2]; A431 cells, fifth day, atomic absorption spectroscopy) | cell growth, cells exposed vs not exposed to gold (A431 cells [2]; gold-antibody in growth medium) | cell survival vs cells without gold (A431 cells [3]) | dose enhancement factor (A431 cells [3]; dose required to kill one-half of the cells vs cells without gold)
1 | Herceptin-AuNP: Herceptin (an antibody specific for Her2) coupled to 15 nm gold nanoparticles using a crosslinking reagent | 0.44 ± 0.05 % id/g | 0.45 % gold by weight | ~1.7 | 16.4 % id/g |  |  |  |  | 
2 | gold nanoparticle-anti-EGFr antibody conjugate: 15 nm colloidal gold conjugated to anti-Epidermal Growth Factor receptor (EGFr) antibody MAb225 |  |  |  |  | did not show any visible uptake | 0.55 % gold by weight | No differences in cell growth | lower survival at all doses | 4.5
